Here are results for 1 compound from patent US20110118298A1, “COMPOSITIONS, KITS, AND METHODS FOR IDENTIFICATION, ASSESSMENT, PREVENTION, AND THERAPY OF CANCER” (INFINITY PHARMACEUTICALS, INC., priority 2009, published 2011).

The subject of this assay is EGFR mutant tumors with T790M resistant clones. Description: In vivo model of emerging EGFR TKI resistance (T790M). The note with it: day 45.

Regarding `COc1cc2ncnc(Nc3ccc(F)c(Cl)c3)c2cc1OCCCN1CCOCC1` [gefitinib, reference compound], the “animals still on study” value is “had been removed due to tumor progression”.
